Assay results reported in US20120122107A1 (AARHUS UNIVERSITET, published 2012).

T1: MAp44 in human serum or plasma (native, also in purified MBL/MASP complexes) (human, UniProt P48740 20-363)
T1 construct: Native protein from normal human serum or plasma
T1 sequence: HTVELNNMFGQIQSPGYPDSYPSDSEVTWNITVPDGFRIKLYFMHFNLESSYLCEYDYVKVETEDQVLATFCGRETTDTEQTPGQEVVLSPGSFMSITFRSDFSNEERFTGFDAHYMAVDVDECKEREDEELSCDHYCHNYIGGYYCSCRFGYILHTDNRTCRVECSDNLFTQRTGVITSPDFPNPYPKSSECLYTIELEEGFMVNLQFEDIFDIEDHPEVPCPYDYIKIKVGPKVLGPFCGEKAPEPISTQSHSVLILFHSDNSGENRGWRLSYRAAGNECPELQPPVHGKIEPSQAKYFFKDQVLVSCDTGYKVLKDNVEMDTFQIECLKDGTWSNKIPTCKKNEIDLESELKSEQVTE


Tests used:
[1] = biological target: T1, MAp44 in human serum or plasma (native, …); assay: TRIFMA: L-ficolin captured from human serum, probed in situ with anti-MAp44
Description: (§1) FIG. 3. Association of MAP44 with MBL and ficolins in serum. A, MBL and ficolins were captured from human serum in microtiter wells coated with anti-MBL, anti-L-ficolin or anti-H-ficolin antibody. Non-specific monoclonal IgG₁ served as control. Bound MBL or ficolins, together with associated proteins, were eluted with SDS-sample buffer, applied to non-reducing SDS-PAGE and analyzed by Western blotting using rabbit anti-MAP44 antibody. Sample ID for each lane is denoted at the top. Purified MBL/MASP complexes (positive control) were also tested. The black lines indicate excision of irrelevant lanes. The Mw in kDa of each band of the marker is given on the right side. The experiment was repeated twice with similar results. B, MBL or ficolins were captured in microtiter wells and specific antibodies were used to detect MAP44. The capture antibodies are given below the x-axis. The signal was detected by time-resolved fluorometry and is given on the y-axis as counts per second. The error bars indicate the standard deviation of duplicate measurements. C, similar to B, but in this case development was with anti-MASP-3 antibody.
(§2) In addition, we similarly captured MBL and ficolins from serum and probed in situ with anti-MAp44 or anti-MASP-3 antibodies. […]

[2] = biological target: T1, MAp44 in human serum or plasma (native, …); assay: TRIFMA: H-ficolin captured from human serum, probed in situ with anti-MAp44
Description: as §1, §2

| binding result [1] | binding result [2] | Binder |
| --- | --- | --- |
| binds | – | L-ficolin in human serum (other, UniProt Q15485 26-313, looked up, mature; Native serum protein captured with mAb GN5; also called ficolin-2) LQAADTCPEVKMVGLEGSDKLTILRGCPGLPGAPGPKGEAGTNGKRGERGPPGPPGKAGPPGPNGAPGEPQPCLTGPRTCKDLLDRGHFLSGWHTIYLPDCRPLTVLCDMDTDGGGWTVFQRRVDGSVDFYRDWATYKQGFGSRLGEFWLGNDNIHALTAQGTSELRVDLVDFEDNYQFAKYRSFKVADEAEKYNLVLGAFVEGSAGDSLTFHNNQSFSTKDQDNDLNTGNCAVMFQGAWWYKNCHVSNLNGRYLRGTHGSFANGINWKSGKGYNYSYKVSEMKVRPA |
| – | binds | H-ficolin in human serum (other, UniProt O75636 24-299, looked up, mature; Native serum protein captured with mAb 4H5; also called ficolin-3) QEHPSCPGPRELEASKVVLLPSCPGAPGSPGEKGAPGPQGPPGPPGKMGPKGEPGDPVNLLRCQEGPRNCRELLSQGATLSGWYHLCLPEGRALPVFCDMDTEGGGWLVFQRRQDGSVDFFRSWSSYRAGFGNQESEFWLGNENLHQLTLQGNWELRVELEDFNGNRTFAHYATFRLLGEVDHYQLALGKFSEGTAGDSLSLHSGRPFTTYDADHDSSNSNCAVIVHGAWWYASCYRSNLNGRYAVSEAAAHKYGIDWASGRGVGHPYRRVRMMLR |
